# In patent US9176117B2, “Macrophage hazardous material detection” (dated 2015):
# This is a selection: effects in other tests are not listed, and their absence says nothing.
# System: Sentinel Cells (SC), stationary macrophages
# Assay: Sentinel Cell responses to energetic materials by real-time multi-label light microscopy (DIC, H33342 DNA, MitoTracker, ER-Tracker)
smiles,measurement,setting,value
O=[N+]([O-])OCC(CO[N+](=O)[O-])(CO[N+](=O)[O-])CO[N+](=O)[O-],range of concentrations of EM in solution to which SC respond,,ppb and ppt
same,changes in membrane structure compared to control,"PETN at 50 nm in solution, FIG. 3B",significant membrane filigree and membrane blebs
same,observed Sentinel Cell responses (flower plot),"PETN at 50 nm in solution, FIG. 3C","increase in cytoplasmic NO levels, marked increases in nuclear dsDNA, induction of chromosome condensation, unscheduled DNA synthesis, induction of filigree deformations, fragility in cell membranes, and cell pairs observed at a low percentage"
O=[N+]([O-])N1CN([N+](=O)[O-])CN([N+](=O)[O-])CN([N+](=O)[O-])C1,range of concentrations of EM in solution to which SC respond,,ppb and ppt
same,primary Sentinel Cell responses observed,HMX at 0.5 nm in solution,"loss of nuclear dsDNA to cytoplasmic space, then to extracellular space; increase in extra-nuclear dsDNA; arborized nuclei and cell morphologies; ell pairs observed (low percentage)"
same,lower level of EM giving response types similar to RDX,HMX at 0.5 nm versus RDX 50 nm in solution,100 fold
O=[N+]([O-])N1CN([N+](=O)[O-])CN([N+](=O)[O-])C1,range of concentrations of EM in solution to which SC respond,,ppb and ppt
same,other observed Sentinel Cell responses,RDX 50 nm in solution,chromosome condensation; unscheduled dsDNA synthesis; increased nuclear dsDNA; arborized nuclei; large changes in cell morphology; distended mitochondria; loss of nuclear dsDNA; and leakage of dsDNA to cytosol and extracellular space
Cc1c([N+](=O)[O-])cc([N+](=O)[O-])cc1[N+](=O)[O-],specific Sentinel Cell responses,TNT at 50 nm in solution,micronuclei and apoptotic nuclear dsDNA arrangement/loss
O=[N+]([O-])OCC(CO[N+](=O)[O-])O[N+](=O)[O-],primary Sentinel Cell responses observed,"TNG at 0.5 nm in solution, FIG. 8","pronounced NOS activity, significant increases in cell size and membrane surface, pronounced hunting behavior, and levels of apoptosis"
